{"source": "patent US9073858B2", "about": "“Methods of targeted drug development” (priority 2010, dated 2015)", "format_in_all_cases": "cell-based", "key": {"HT-29 cells": {"test_system": "HT-29 cells", "experiment": "HT-29 Cell Proliferation Assay (MTT)", "conditions": "Homo sapiens, HT-29, 72 h, read-out: IC50 Value (μM) HT-29 Cells", "experimental": "(§1) Cell proliferation is determined using the MTT assay. The MTT cell proliferation assay is a colorimetric assay system which measures the reduction of a tetrazolium component (MTT) into an insoluble formazan product by the mitochondria of viable cells. After incubation of the cells with the MTT reagent, DMSO is added to solubilize the colored crystals and the samples read at a wavelength of 560 nm. The amount of color produced is directly proportional to the number of viable cells.\n3-(4,5-Dimethylthiazol-2-yl)-2,5-diphenyltetrazolium Bromide (MTT) dye (Aesar, cat no. L11939) was prepared at 5 mg/ml in PBS. […] Plates were read on the PolarStar plate reader at 560 nm. Percent (%) inhibition was calculated as 100%−(OD560 nm experimental-blank)×100%/OD560 nm control-blank. […] IC50 values were calculated in GraphPad Prism using non-linear regression curve fitting. […]\nBriefly, compounds are added to cells plated in 96-well plates. […] The effect of the compounds on cell proliferation is analyzed using GraphPad Prism. […]\nFor the HT-29 cell proliferation assay, on day 1, HT-29 cells are seeded at 3,000 cells/well in 100 μl media containing 10% FBS, 1× Pen-Strep, and 1× L-Glutamine in 96 well, tissue culture-treated plates. […] On day 5, plates were analyzed for cell growth using the MTT assay."}, "H1975 cells": {"test_system": "H1975 cells", "experiment": "H1975 Cell Proliferation Assay (MTT)", "conditions": "Homo sapiens, NCI-H1975, 72 h, read-out: IC50 Value (μM) H1975 Cells", "experimental": "as §1\n3-(4,5-Dimethylthiazol-2-yl)-2,5-diphenyltetrazolium Bromide (MTT) dye (Aesar, cat no. L11939) was prepared at 5 mg/ml in PBS. To each well, 20 μl of MTT solution was added to existing media and mixed thoroughly with 5 mins of gentle shaking at room temperature. Plates were incubated at 37° C., 5% CO2 for approximately 2 hrs. After 2-3 hrs incubation, media was aspirated out and plates were patted dry. […] Plates were read on the PolarStar plate reader at 560 nm. Percent (%) inhibition was calculated as 100%−(OD560 nm experimental-blank)×100%/OD560 nm control-blank. […] IC50 values were calculated in GraphPad Prism using non-linear regression curve fitting. […]\nBriefly, compounds are added to cells plated in 96-well plates. […] The effect of the compounds on cell proliferation is analyzed using GraphPad Prism."}, "A549 cells": {"test_system": "A549 cells", "experiment": "A549 Cell Proliferation Assay (MTT)", "conditions": "Homo sapiens", "experimental": "Cell proliferation is determined using the MTT assay. The MTT cell proliferation assay is a colorimetric assay system which measures the reduction of a tetrazolium component (MTT) into an insoluble formazan product by the mitochondria of viable cells. After incubation of the cells with the MTT reagent, DMSO is added to solubilize the colored crystals and the samples read at a wavelength of 560 nm. The amount of color produced is directly proportional to the number of viable cells. […] L11939) was prepared at 5 mg/ml in PBS. […] Plates were read on the PolarStar plate reader at 560 nm. […] IC50 values were calculated in GraphPad Prism using non-linear regression curve fitting. All statistical analyses was done either in GraphPad Prism or Microsoft Excel. […] Briefly, compounds are added to cells plated in 96-well plates. The cells are allowed to grow for 72 hours before MTT treatment. The effect of the compounds on cell proliferation is analyzed using GraphPad Prism. A549 cells are a non-small cell lung cancer cell line that have wild type EGFR and p53 but have point mutations in KRAS gene which transform it into an oncogene. […] SH30071.03, lot no. ATB31500), 1% Pen Strep (Gibco, cat no. […] On day 2, working solutions of compounds at 200× were prepared. […] Plates were incubated for 72 hours before analyzing them with MTT (as described above)."}, "[1]": {"test_system": "DNA fragmentation in A549 cells", "experiment": "DNA Fragmentation Assay (Cell Death Detection ELISA)", "conditions": "Homo sapiens; for Emax at 1 µM: A549, read-out: % Increase Relative to Staurosporin"}, "[2]": {"conditions": "A549, 72 h, read-out: IC50 Value (μM) A549 Cells"}}, "note": "Where two headings read alike, the source gives them in different places.", "data": [{"smiles": "Cc1nc(NC(c2ccc(Cl)c(Cl)c2)c2ccc3cccnc3c2O)c(Cl)cc1Cl", "note": "(stereo not drawn) [AD4-13202]", "values": [{"measurement": "IC50", "setting": "HT-29 cells", "result": 2.3, "unit": "µM"}, {"measurement": "IC50", "setting": "H1975 cells", "result": 0.72, "unit": "µM"}, {"measurement": "IC50", "setting": "A549 cells; [2]", "result": 0.09, "unit": "µM"}, {"measurement": "IC50", "setting": "A549 cells; A549, read-out: IC50, cell proliferation in A549 or H1975 cells", "result": "≤ 0.1", "unit": "µM"}]}, {"smiles": "Cc1nc(NC(c2ccc(Cl)cc2)c2ccc3cccnc3c2O)ccc1Cl", "note": "(stereo not drawn) [AD4-13161]", "values": [{"measurement": "activation at 10 µM", "setting": "[1]; A549, 24 h, read-out: % Increase over Background", "result": 678, "unit": "%"}]}, {"smiles": "Oc1c(C(Nc2ccc(Cl)cn2)c2ccc(C(F)(F)F)cc2)ccc2cccnc12", "note": "(stereo not drawn) [AD4-13053]", "values": [{"measurement": "IC50", "setting": "H1975 cells", "result": 0.18, "unit": "µM"}, {"measurement": "IC50", "setting": "A549 cells; [2]", "result": 0.18, "unit": "µM"}]}, {"smiles": "Cc1cc(Cl)cnc1NC(c1cccc(Cl)c1Cl)c1ccc2cccnc2c1O", "note": "(stereo not drawn) [AD4-13147]", "values": [{"measurement": "Emax at 1 µM", "setting": "[1]", "result": 49, "unit": "%"}]}, {"smiles": "Oc1c(C(Nc2cc(Cl)c(Cl)cn2)c2ccc(Cl)cc2Cl)ccc2cccnc12", "note": "(stereo not drawn) [AD4-13178]", "values": [{"measurement": "Emax at 1 µM", "setting": "[1]", "result": 48, "unit": "%"}]}]}
